The source of these data is PMC6663879, “Biochemical and structural investigations clarify the substrate selectivity of the 2-oxoglutarate oxygenase JMJD6” (The Journal of Biological Chemistry, 2019).

The experiment has as its target full-length JMJD6 (JmjC domain-containing protein 6), residues 1–403 (human) (UniProt Q6NYC1). Put plainly: native MS; nondenaturing MS of full-length JMJD6; conditions not shown (Fig. S27).

Several values for one entry are separate records, joined by “and”; a condition that tells them apart may be missing. Equal entries are not always repeated.

Consider “full-length JMJD6 (JmjC domain-containing protein 6), residues 1–403 (from UniProt Q6NYC1 1-403) (enzyme)”, for which the stoichiometry N is 2 and 3 and 4.
